# Measured values reported in patent US8314210B2, “Compositions and methods for the generation of MHC class II compounds by peptide exchange” (priority 2002, dated 2012).
# By UniProt entry, the sequences of proteins in these tests, tags left out. Residues count along the entry.
# UniProt P01903, 26-216 limits assumed: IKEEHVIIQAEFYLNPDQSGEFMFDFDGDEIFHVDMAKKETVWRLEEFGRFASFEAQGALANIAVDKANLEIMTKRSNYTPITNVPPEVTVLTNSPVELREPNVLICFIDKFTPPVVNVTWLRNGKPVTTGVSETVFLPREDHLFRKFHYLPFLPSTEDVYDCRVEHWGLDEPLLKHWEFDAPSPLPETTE
# UniProt P01911, 30-227 limits assumed: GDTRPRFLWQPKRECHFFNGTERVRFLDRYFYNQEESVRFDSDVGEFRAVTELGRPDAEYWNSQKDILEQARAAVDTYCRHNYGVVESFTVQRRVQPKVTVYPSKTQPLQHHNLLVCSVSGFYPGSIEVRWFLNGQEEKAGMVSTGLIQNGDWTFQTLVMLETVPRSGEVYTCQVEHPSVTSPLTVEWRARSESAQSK
# Target: HLA-DR2b (DRA, DRB1*1501) (Homo sapiens, UniProt P01903+P01911)
# Test: biochemical
smiles,measurement,value
CC[C@H](C)[C@H](NC(=O)[C@H](CCC(=O)O)NC(=O)CNC(=O)[C@@H](NC(=O)[C@@H]1CCCN1C(=O)[C@@H](NC(=O)[C@@H]1CCCN1C(=O)[C@@H]1CCCN1C(=O)[C@@H](N)CC(N)=O)[C@@H](C)CC)C(C)C)C(=O)N[C@@H](Cc1ccc(O)cc1)C(=O)N[C@@H](CCCCN)C(=O)N[C@@H](CCCNC(=N)N)C(=O)N[C@@H](Cc1c[nH]c2ccccc12)C(=O)N[C@H](C(=O)N[C@H](C(=O)N[C@@H](CC(C)C)C(=O)NCC(=O)N[C@@H](CC(C)C)C(=O)N[C@@H](CC(N)=O)C(=O)N[C@@H](CCCCN)C(=O)N[C@H](C(=O)N[C@H](C(=O)O)C(C)C)[C@@H](C)CC)[C@@H](C)CC)[C@@H](C)CC [p24 (121-142)],IC50,11 µM
